What was measured:
[1] = Wang et al., 2018; cited from earlier work
HLA-DQ8 monomers = experiment: Gentle SDS-PAGE assay of peptide binding to DQ8; parameters: species or system human; details: 100 μM peptide, 0.5 μM HLA-DQ8 monomers, 37° C., 72 h, pH 5.5
Experimental: Analysis of x-Id peptide binding to DQ8 using gentle SDS-PAGE assay. Gentle SDS-PAGE was used to assess formation of stable complexes between peptides and HLA-DQ8 molecules as previously described (Kim et al., 2013; Sadegh-Nasseri and Germain, 1991). Briefly, 0.5 μM of HLA-DQ8 monomers (provided by NIH tetramer core facility) were treated with thrombin to cleave and remove CLIP peptide. Empty monomers were incubated in the absence or presence of 100 μM of indicated peptides (x-Id, TP-Id, mimotope (R22E), native insulin B:9-23, and h-Id) at 37° C. for 72 h in citrate phosphate buffer, pH 5.5 with 1 mM PMSF and 0.025% NaN3. Reactions were neutralized, mixed with equal volumes of SDS-PAGE sample buffer containing 0.1% SDS (final concentration) and placed for 15 min at room temperature and run on 10% PAGE gels and silver-stained using a standard protocol.

formation of SDS-stable complexes with soluble DQ8 (HLA-DQ8 monomers): forming SDS-stable complexes
Substance: mimotope: insulin B:9-23 with arginine at P9 substituted by glutamic acid (R22E)
potency relative to native insulin B:9-23 [1]: 100 fold

— patent US20220073963A1, “COMPOSITIONS AND METHODS FOR DETECTING AND TREATING TYPE 1 DIABETES AND OTHER AUTOIMMUNE DISEASES” (THE JOHNS HOPKINS UNIVERSITY, priority 2018, published 2022)
